# Apparent affinities of Ab-14 variants for a coronavirus HR2 peptide

Values reported by Li et al. 2023, doi:10.1038/s41467-023-39022-2 (FLAb copy).

Target: peptide PDVDLGDISGINAS, taken from heptad repeat 2 (HR2) of SARS-CoV-2 spike.

Parent: Ab-14, a human scFv built as VH, a (GGGGS)3 linker, VL. Only the CDRs of the heavy chain vary.
VH: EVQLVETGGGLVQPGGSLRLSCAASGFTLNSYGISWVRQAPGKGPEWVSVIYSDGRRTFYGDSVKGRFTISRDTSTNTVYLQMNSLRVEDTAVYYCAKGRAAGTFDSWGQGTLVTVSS
VL: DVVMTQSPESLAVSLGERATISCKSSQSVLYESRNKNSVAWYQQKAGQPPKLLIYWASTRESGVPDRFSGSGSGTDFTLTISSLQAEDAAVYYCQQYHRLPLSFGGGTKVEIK

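The starting antibody came from a phage panning campaign against this peptide. This is the validation round: designs drawn from the data on random variants, tested in the same kind of assay. Several design methods are mixed in this list. The assay is AlphaSeq: two haploid yeast populations carry antibody and antigen on their surface. The frequency of each diploid, read from paired DNA barcodes, reflects how well the two displayed proteins bind. Scores were corrected for input abundance and mapped to Kd with protein pairs of known affinity run in the same pool. Mating was done six times.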

Variants are written as CDR1, CDR2 and CDR3 of the heavy chain (limits as in the source). Parent: GFTLNSYGIS, VIYSDGRRTFYGDSVK, GRAAGTFDS.
Variants here have more than six changes.
The Kd shown is the geometric mean over detected replicates; a lower Kd is a better binder.
"no signal" means that the variant was in the library but no mating with the target was seen in any replicate; the authors take this as a sign of poor binding, and no number exists.
In the paper, a design with two or fewer of six values counts as a poor binder.

Variant GFDINEYGIS | VIYADGQRTFYADSVK | GQTAGTFDV showed 380 pM (6 of 6 replicates; controls 1 of 18). For GFDINEYGVS | VIYADGMRSYYQDKVK | GSLGSLFDV, the assay gave no signal (0 of 6 replicates; controls 1 of 18). Variant GFDLNEYGIS | VIYADGKRTFYTDSVK | GEFAGTFDQ gave no signal (0 of 6 replicates; controls 0 of 18). Variant GFDLNEYGIS | VIYADGMRTAYADSVK | GQNAGTFDT gave 560 pM (6 of 6 replicates; controls 0 of 18). Variant GRDLDEYGIS | VIYADGRRQMYAVSFK | GEIGGTFLM gave no signal (0 of 6 replicates; controls 0 of 18).

Variant GFNLNEYGIS | VIYADGMRTFYSDSVK | GEHAGTFDV gave 470 pM (6 of 6 replicates; controls 0 of 18). Variant GFNLDEEGIS | VIYADGVRTAYINNVK | GYLDGYMTD showed no signal (0 of 6 replicates; controls 1 of 18). Variant GFSIDEYGIS | VIYADGTRTFYTDNVK | GLIGMFCDI gave 850 pM (6 of 6 replicates; controls 1 of 18). With GFDLDEYGIS | VIYADGMRTAYANSVK | GNVAGTFDV the result was 660 pM (6 of 6 replicates; controls 0 of 18). Variant GFSLDEFGIS | VIYADGMRTVYSQDVK | GQHVEFTVG gave no signal (0 of 6 replicates; controls 0 of 18).

Variant GFDLDEYGIS | VIYADGVRKAYADSVK | GENAGTFDV gave 3.7 nM (6 of 6 replicates; controls 0 of 18). Variant GFDLNEYGIS | VIYADGMRTAYSDSVK | GVNAGTFDV showed 420 pM (6 of 6 replicates; controls 1 of 18). With GFDLNEYGIS | VIYADGRRTFYTDSVK | GAMAGTFDQ the result was 1.8 nM (6 of 6 replicates; controls 0 of 18). Variant GFTLDEYGIS | VIYADGRRTFYADSVK | GEEAGTFDI gave 540 pM (6 of 6 replicates; controls 0 of 18). Variant GFNLDEYGIS | VIYADGMRTFYQDSVK | GEVAGTFDV showed 690 pM (6 of 6 replicates; controls 0 of 18).

With GFDLDEYGIS | VIYADGMRTVYADSVK | GNNAGTFDI the result was 8.4 nM (6 of 6 replicates; controls 0 of 18). For GFGINEYGIS | VIYADGMRRSYADSVK | GAHSGYMVW, the assay gave no signal (0 of 6 replicates; controls 0 of 18). With GFDLNEYGIS | VIYADGRRTFYADSVK | GNLAGTFSV the result was 170 pM (6 of 6 replicates; controls 0 of 18). Variant GFDLNEYGIS | VIYADGRRTFYSDSVK | GEVAGTFVM showed 390 pM (6 of 6 replicates; controls 0 of 18). With KFNIEEYGIS | VIYADGKRTSYSNAVK | GNQGRTFNT the result was 440 nM (3 of 6 replicates; controls 0 of 18).

Variant GFDLNEYGIS | VIYADGQRTAYADDVK | GENAGTFDL showed 550 pM (6 of 6 replicates; controls 0 of 18). Variant GEDLLEYGIS | VIYADGKRVAYTNAVK | GNEAGFFTL gave 450 nM (1 of 6 replicates; controls 1 of 18). Variant GFNLDEYGIS | VIYADGRRTFYSDNVK | GEVAGTFDI showed 1.4 nM (6 of 6 replicates; controls 0 of 18). With GFDLEKYGIS | VIYADGRRSVYADNVK | GMDGATGGF the result was no signal (0 of 6 replicates; controls 2 of 18). For GFDLNEYGIS | VIYADGRRSFYADSVK | GQVAGTFDV, the assay gave 1.7 nM (6 of 6 replicates; controls 0 of 18).

Variant GFNLEEYGIS | VIYADGFRASYTDDVK | GQNGSVNLR showed no signal (0 of 6 replicates; controls 0 of 18). With GFDLDEYGIS | VIYADGVRTAYADSVK | GQNAGTFDL the result was 580 pM (6 of 6 replicates; controls 0 of 18). Variant GFTLGEYGIS | VIYADGERTMYSNAVK | GNMAGTFSF showed 80 pM (6 of 6 replicates; controls 0 of 18). With GFQIEEYGIS | VIYADGMRSFYVDNVK | NGMNVSGIV the result was no signal (0 of 6 replicates; controls 0 of 18). With GFDLNEYGIS | VIYADGMRTAYANDVK | GETAGTFDV the result was 820 pM (6 of 6 replicates; controls 1 of 18).

With GFSLDEYGIS | VIYADGLRSKYADKVK | GELTQKGDT the result was no signal (0 of 6 replicates; controls 0 of 18). Variant GFDLEDYGIS | VIYADGQRTAYADSVK | GENAGTFDV gave 1.4 nM (6 of 6 replicates; controls 1 of 18). For GNELDEYGIS | VIYADGKRTAYSDAVK | DVGSNTLVD, the assay gave no signal (0 of 6 replicates; controls 1 of 18). With GFDLEDYGIS | VIYADGRRTFYADSVK | GKVAGTFDV the result was 110 pM (6 of 6 replicates; controls 0 of 18). For GFDIMEYGVS | VIYADGVRTAYSQDVK | GENLDSYVD, the assay gave no signal (0 of 6 replicates; controls 0 of 18).

For GFDLDEYGIS | VIYADGRRTAYADSVK | GKNAGTFDV, the assay gave 140 pM (6 of 6 replicates; controls 0 of 18). With GFDLDEYGIS | VIYADGRRTFYADSVK | GTNAGTFTS the result was 4.3 nM (6 of 6 replicates; controls 0 of 18). For GKHLNEFGIS | VIYADGLRMHYANSVK | GEMAGTFTT, the assay gave no signal (0 of 6 replicates; controls 0 of 18). For GFDLEEYGIS | VIYADGRRTFYSDSVK | GEAAGTFDE, the assay gave 1.6 nM (6 of 6 replicates; controls 0 of 18). Variant GFDLNEYGIS | VIYADGMRTFYADSVK | GQNAGTFTL showed 1.9 nM (5 of 6 replicates; controls 0 of 18).

With GFDLNEYGIS | VIYADGTRTAYADSVK | GNQAGTFDV the result was 130 pM (6 of 6 replicates; controls 0 of 18). Variant GFDLNEYGIS | VIYADGRRTAYTDSVK | GNVAGTFDQ showed 200 pM (6 of 6 replicates; controls 0 of 18). For GFDLNEYGIS | VIYADGSRTAYVDSVK | GQNAGTFDV, the assay gave no signal (0 of 6 replicates; controls 0 of 18).

The first 6 variants above that were never detected:

CDR-H1,CDR-H2,CDR-H3,Kd,detected,control signals
GFDINEYGVS,VIYADGMRSYYQDKVK,GSLGSLFDV,no signal,0/6,1/18
GFDLNEYGIS,VIYADGKRTFYTDSVK,GEFAGTFDQ,no signal,0/6,0/18
GRDLDEYGIS,VIYADGRRQMYAVSFK,GEIGGTFLM,no signal,0/6,0/18
GFNLDEEGIS,VIYADGVRTAYINNVK,GYLDGYMTD,no signal,0/6,1/18
GFSLDEFGIS,VIYADGMRTVYSQDVK,GQHVEFTVG,no signal,0/6,0/18
GFGINEYGIS,VIYADGMRRSYADSVK,GAHSGYMVW,no signal,0/6,0/18

As a blank, each scFv also met three strains without target: over all heavy chain designs, 1% of these pairings were detected, typically at 120 nM and seldom below 7.0 nM. The control count says in how many pairings with the empty strains this scFv gave a signal.
The parent sequence was in this pool as ten entries: three were never detected, three once, and four in most replicates, with averages from 2.2 nM to 240 nM.
Values of this round are not directly comparable with the first-round values of the same sequences.